This note sets out measurements from patent US20250129135A1, “Multi-Agonist and Use Thereof” (priority 2021, published 2025).

Protein sequences, listed by entry. Tags and fused reporters are not part of them. Residues count along the entry.
UniProt P43220, 24-463: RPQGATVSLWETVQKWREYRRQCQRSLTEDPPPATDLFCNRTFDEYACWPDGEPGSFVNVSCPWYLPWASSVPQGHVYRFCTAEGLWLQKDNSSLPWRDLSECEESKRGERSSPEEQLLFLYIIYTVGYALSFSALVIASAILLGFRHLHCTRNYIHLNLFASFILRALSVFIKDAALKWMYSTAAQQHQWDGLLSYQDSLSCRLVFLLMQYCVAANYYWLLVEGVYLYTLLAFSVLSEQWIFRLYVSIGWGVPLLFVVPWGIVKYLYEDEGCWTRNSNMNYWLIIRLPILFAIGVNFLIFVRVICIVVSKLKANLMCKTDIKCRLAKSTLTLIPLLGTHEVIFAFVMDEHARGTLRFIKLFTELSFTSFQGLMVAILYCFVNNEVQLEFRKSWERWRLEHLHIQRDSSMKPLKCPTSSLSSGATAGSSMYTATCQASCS
UniProt P47871, 26-477: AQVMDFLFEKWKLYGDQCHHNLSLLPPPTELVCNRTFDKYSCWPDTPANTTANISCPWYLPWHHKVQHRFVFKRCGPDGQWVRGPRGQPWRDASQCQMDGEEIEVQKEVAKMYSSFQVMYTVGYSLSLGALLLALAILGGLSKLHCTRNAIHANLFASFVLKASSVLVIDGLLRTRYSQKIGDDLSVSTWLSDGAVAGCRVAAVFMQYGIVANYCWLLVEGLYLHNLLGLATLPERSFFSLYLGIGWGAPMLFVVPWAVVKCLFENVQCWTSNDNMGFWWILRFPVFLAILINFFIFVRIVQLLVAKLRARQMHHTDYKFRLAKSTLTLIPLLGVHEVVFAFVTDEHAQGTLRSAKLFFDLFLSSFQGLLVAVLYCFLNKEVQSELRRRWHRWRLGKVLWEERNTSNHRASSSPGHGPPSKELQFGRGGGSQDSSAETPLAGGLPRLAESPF

One test concerns the target Human GLP-1R (Homo sapiens, UniProt P43220). In words: cAMP (HTRF) activity in HEK-293 cells stably overexpressing human GLP-1 receptor. It is filed as cell-based. On the set-up: expressed in transfected cells; host or cells: HEK-293. To be noted: EC50 of human GLP-1 (7-37) / EC50 of compound. As to the method: (§1) By measuring the cAMP signal response levels of the aforementioned cells, the agonistic activity of individual compound towards the corresponding receptor was determined. The intracellular cAMP content was measured using reagent kit available from Cisbio Corp. based on HTRF (homogeneous time-resolved fluorescence) technology.
(§2) The cell fluid was transferred to 10 ml of HBSS for resuspension, and centrifuged at 1000 rpm for 5 minutes at room temperature.
(§3) 10 μL cell suspension was added to each well in the 384 well plate. […] Using the ECHO liquid transfer system, 100 nL of the prepared compound solution was added to the corresponding cell suspensions in the 384 well plate, rotated and shaken at 1000 rpm for 1 minute to mix evenly, and then incubated at room temperature for 60 minutes. 10 μL of detection reagent was added to each well after drug incubation was completed, and incubation was performed in the kit at room temperature for 60 minutes. […] GraphPad Prism 5 plotting software was used to create compound concentration response curves and EC50 (nM) values was calculated.
A general note: TR-FRET usually uses a lanthanide donor and a delayed reading to cut background.

In the next test the target is T1, Human GIP R (Homo sapiens, UniProt P48546).
T1 construct: expressed in transfected cells; host or cells: CHO
T1 sequence (P48546 22-466): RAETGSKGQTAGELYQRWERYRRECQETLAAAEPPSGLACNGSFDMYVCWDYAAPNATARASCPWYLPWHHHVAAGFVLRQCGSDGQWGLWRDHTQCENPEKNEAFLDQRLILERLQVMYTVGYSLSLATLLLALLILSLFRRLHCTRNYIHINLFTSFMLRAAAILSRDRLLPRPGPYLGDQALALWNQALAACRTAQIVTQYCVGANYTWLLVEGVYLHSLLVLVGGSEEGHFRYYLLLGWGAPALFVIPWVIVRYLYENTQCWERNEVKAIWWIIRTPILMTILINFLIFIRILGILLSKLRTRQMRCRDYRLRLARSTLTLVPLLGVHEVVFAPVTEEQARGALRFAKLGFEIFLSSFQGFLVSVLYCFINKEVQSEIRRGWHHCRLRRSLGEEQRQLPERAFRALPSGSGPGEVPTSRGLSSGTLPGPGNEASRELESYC
Nature of the test: cAMP (HTRF) activity in CHO cells stably overexpressing GIP receptor. It is filed as cell-based. To be noted: EC50 of human GIP / EC50 of compound. As to the method: as §1, §2, §3

In another test the target is T2, Human GCG R (Homo sapiens, UniProt P47871).
T2 construct: expressed in transfected cells; host or cells: HEK-293
Nature of the test: cAMP (HTRF) activity in HEK-293 cells stably overexpressing human GCG receptor. It is filed as cell-based. The following applies: EC50 of human GCG / EC50 of compound. As to the method:
as §1, §2, §3

The subject of a further test is 3T3-L1 adipocytes. To be noted: relative to GIP. The protocol:
Mouse 3T3-L1 precursor adipocytes can be induced to differentiate into mature adipocytes. […] After the cells became full and contacted with each other, DMEM differentiation medium containing 20% FBS, 0.5 mM IBMX, 0.4 ug/mL dexamethasone, and 5 ug/mL insulin was used to induce differentiation of 3T3-L1 adipocyte. After 5 days of induction and cultivation, DMEM medium containing […], 4 ug/ml insulin, and 10 uM rosiglitazone was used to continue induction and cultivation for 3 days. Then, DMEM medium containing 10% FBS was used to continue cultivation for 2-3 days to induce mature 3T3-L1 adipocytes.
The cAMP level produced by the compound on 3T3-L1 adipocytes was determined in this experiment. The tested compound solution was diluted step by step according to a concentration gradient of 3 times, to obtain a total of 10 series of concentration solutions. The solutions were added to induced mature 3T3-L1 adipocytes and incubated at room temperature for 60 minutes. 10 μL detection reagent in the kit was added to each well after drug incubation, and incubated at room temperature for another 60 minutes. […] GraphPad Prism 5 plotting software was used to create compound concentration-effect curves and calculation was performed.

Test [1] relates to human primary liver cells. It is filed as cell-based. The following applies: relative to GCG. As to the method:
The cAMP levels produced by compounds on human primary liver cells were determined in this experiment. Human primary liver cells were purchased from Lonza (cell product number HUCPG).
Frozen human primary liver cells were placed in a 37° C. constant temperature water bath for rapid thawing and recovery. The cell solution was transferred to 10 ml of HBSS for resuspension, and centrifuged at 1000 rpm for 5 minutes at room temperature.
10 μL cell suspension was added to each well in the 384 well plate. […] Using the ECHO liquid transfer system, 100 nL of the prepared compound solution was added to the corresponding cell suspensions in the 384 well plate, rotated and shaken at 1000 rpm for 1 minute to mix evenly, and then incubated at room temperature for 60 minutes. 10 μL of detection reagent was added to each well after drug incubation was completed, and incubation was performed for 60 minutes.

The next test relates to RIN-m5F cells. Format: cell-based, rat. The following applies: relative to GLP-1(7-37). The protocol:
This experiment measured the cAMP level produced by the compound on RIN-mF cells.
Frozen […] cells were placed in a 37° C. constant temperature water bath for rapid thawing and recovery. The cell solution was transferred to 10 ml of HBSS for resuspension, and centrifuged at 1000 rpm for 5 minutes at room temperature.
10 μL cell suspension was added to each well in the 384 well plate. […] Using the ECHO liquid transfer system, 100 nL of the prepared compound solution was added to the corresponding cell suspensions in the 384 well plate, rotated and shaken at 1000 rpm for 1 minute to mix evenly, and then incubated at room temperature for 60 minutes. 10 μL of detection reagent was added to each wells after drug incubation was completed, and incubation was performed for 60 minutes.

Turning to `CC[C@H](C)[C@H](NC(=O)[C@H](Cc1ccccc1)NC(=O)[C@H](C)NC(=O)C(C)(C)NC(=O)[C@H](CCC(N)=O)NC(=O)[C@H](C)NC(=O)[C@H](CCCCNC(=O)COCCOCCNC(=O)COCCOCCNC(=O)CC[C@H](NC(=O)CCCCCCCCCCCCCCCCCCC(=O)O)C(=O)O)NC(=O)[C@H](CCCCN)NC(=O)[C@H](CC(=O)O)NC(=O)[C@H](CC(C)C)NC(=O)[C@](C)(CC(C)C)NC(=O)[C@@H](NC(=O)[C@H](CO)NC(=O)[C@H](Cc1ccc(O)cc1)NC(=O)[C@H](CC(=O)O)NC(=O)[C@H](CO)NC(=O)[C@@H](NC(=O)[C@](C)(Cc1ccccc1F)NC(=O)[C@@H](NC(=O)CNC(=O)[C@H](CCC(N)=O)NC(=O)C(C)(C)NC(=O)[C@@H](N)Cc1ccc(O)cc1)[C@@H](C)O)[C@@H](C)O)[C@@H](C)CC)C(=O)N[C@@H](CCC(=O)O)C(=O)N[C@@H](Cc1ccccc1)C(=O)N[C@@H](CC(C)C)C(=O)N[C@@H](CC(C)C)C(=O)N[C@@H](CCC(=O)O)C(=O)NCC(=O)NCC(=O)N1CCC[C@H]1C(=O)N[C@@H](CO)C(=O)N[C@@H](CO)C(=O)NC(C)(C)C(=O)N[C@@H](Cc1c[nH]cn1)C(=O)N1CCC[C@H]1C(=O)N1CCC[C@H]1C(=O)N1CCC[C@H]1C(=O)N[C@@H](CO)C(N)=O` [Compound 24], the “Human GLP-1R Rel. A (Relative Activity)” value at Human GLP-1R is recorded as 880.00%. Moreover, on Human GIP R, the “Human GIP R Rel. A (Relative Activity)” value came to 2585.71%. Further, at Human GCG R, the “Human GCG R Rel. A (Relative Activity)” value came to 219.23%. The “Rel. A (Relative Activity) on 3T3-L1 adipocyte” value in the test with 3T3-L1 adipocytes was determined as 948.13%. Also, the “Rel. A (Relative Activity) on human primary liver cells” value in test [1] worked out at 1389.64%. For the same compound, the “Rel. A (Relative Activity) on RIN-m5F” value in the test with RIN-m5F cells amounted to 1075.00%.
